From EP4837569A1, “COMPOSITION AND METHOD FOR REDUCING BRAIN DAMAGE, DISABILITY, AND/OR DEATH BY COMBINED THERAPY WITH TETRAFLUOROBENZYL DERIVATIVE AND HYPOTHERMIA” (dated 2026)

Legend:
[1] = tested on: OHCA patients who successfully resuscitated and received TTM treatment; details: 110 OHCA patients receiving TTM treatment, cited from earlier work
[2] = tested on: cardiac arrest patients who received hypothermia treatment after successful resuscitation; assay: Phase 2 (AWAKE) trial: safety, serious adverse events; details: for Frequency of medication-related serious adverse events / Frequency of serious adverse events: i.v. over 3 days; for unusual side effects, including schizophrenia symptoms: compared to placebo
Description: (§1) The Phase 2 study (AWAKE) was conducted in patients with severe or comatose cardiac arrest who returned to spontaneous circulation and arrived at the emergency department within 4 hours and received therapeutic hypothermia (TTM). This study was conducted to investigate the efficacy and safety of nelonemdaz administered intravenously to subjects for 3 days. A total of 105 patients aged 19 to 80 years were enrolled in the AWAKE trial and were randomly assigned in a double-blind fashion to one of three groups to receive intravenous administration of the test drug. The placebo group received 250 ml of 0.9% saline intravenously six times over three days at 12-hour intervals. The low-dose group received a total of 3,250 mg of nelonemdaz (750 mg for the first dose, then 500 mg every 12 hours for the second to sixth doses). The high-dose group received a total of 5,250 mg of nelonemdaz (1,500 mg for the first dose, then 750 mg every 12 hours for the second to sixth doses). Among patients with cardiac arrest outside the hospital, those whose spontaneous circulation resumed for more than 20 minutes and who received hypothermia treatment at 32-34°C for 24 hours upon arrival at the hospital were enrolled. Patients were administered the test drug within 4 hours after spontaneous circulation resumed. Neurological outcomes were analyzed using the modified Rankin Scale (mRS) and brain performance category (CPC) analysis at 90 days after the first dose for patients in a severe or coma state before administration of the test drug, and the degree of brain white matter damage was evaluated using diffusion tensor MRI (DTI) images on the 4th or 5th day after the first dose.
Unexpected adverse effects, such as symptoms of schizophrenia, have been observed in healthy individuals and ischemic stroke patients treated with NMDA receptor antagonists, which has limited their clinical studies and applications (Hoyte, L. et al., (2004). "The rise and fall of NMDA antagonists for ischemic stroke." Curr Mol Med 4(2): 131-136.). The safety of nelonemdaz, a selective NR2B NMDA receptor antagonist, was investigated in cardiac arrest patients who received hypothermia treatment after successful resuscitation.
Summary of Serious Adverse Events (AEs) Occurring After Administration of Placebo and nelonemdaz-K in Cardiac Arrest Patients Who Received Hypothermia Treatment After Successful Resuscitation [Table 3]

[3] = tested on: resuscitated cardiac arrest patients receiving hypothermia treatment; assay: Phase 2 (AWAKE) trial: modified Rankin Scale (mRS); details: for Common Odds Ratio (95% C.I.) of shift in the distribution of mRS scores / patients with mRS 0 / patients with mRS 1 / patients with mRS 2 / patients with mRS 3 / patients with mRS 4 / patients with mRS 5 / patients with mRS 6 / proportion of patients with an mRS of 0: day 90 after the first drug administration; for proportion of subjects with an mRS of 5-6 (poor neurological outcome: severe coma or death) / proportion of subjects with an mRS of 0-2 (good neurological outcome) / decrease of proportion of subjects with mRS 5-6 versus placebo group / increase of proportion of subjects with mRS 0-2 versus placebo group: day 90 after drug administration
Description: as §1
The Modified Rankin Scale is an analytical method widely used in clinical trials to assess the degree of disability in patients with stroke and cardiac arrest.
The disability improvement efficacy of nelonemdaz was analyzed using the modified Rankin Scale (mRS) in cardiac arrest patients resuscitated and receiving TTM treatment. On day 90 after the first drug administration, the proportion of patients with an mRS of 0 (normal) in the placebo group was 37.04%, while the proportion of patients with an mRS of 0 in the low-dose and high-dose nelonemdaz groups increased to 48.15% and 55.56%, respectively.

[4] = tested on: resuscitated cardiac arrest patients receiving hypothermia treatment; assay: Phase 2 (AWAKE) trial: Cerebral Performance Category (CPC); details: for Common Odds Ratio (95% C.I.) of the shift in the distribution of CPC scores / patients with CPC 1 / patients with CPC 2 / patients with CPC 3 / patients with CPC 4 / patients with CPC 5 / proportion of patients who completely recovered to CPC 1 / proportion of patients with CPC 5 who died: day 90 after the first drug administration; for increase of proportion of patients with CPC 1-2 versus placebo group / proportion of patients with the CPC 1-2 (Good Outcome) / proportion of patients with the CPC 4-5 (Poor Outcome): day 90 after drug administration
Description: as §1
The Cerebral Performance Category (CPC) is used as a scale to analyze neurological outcomes after cardiac arrest, with a score ranging from 0 (normal) to 5 (dead).
Meanwhile, using the Cerebral Performance Category (CPC; 1 = Normal, 2 = Moderate Impairment, 3 = Severe Impairment, 4 = Coma, 5 = Death), the effect of nelonemdaz was analyzed in cardiac arrest patients with severe impairment or coma who had successfully resuscitated and were receiving hypothermia treatment.

[5] = tested on: brain white matter of resuscitated cardiac arrest patients receiving hypothermia treatment; assay: Phase 2 (AWAKE) trial: diffusion tensor MRI (DTI), fractional anisotropy of brain white matter; details: for Fractional anisotropy (FA), Whole brain white matter, Median (interquartile range): day 5 after the first drug administration, listed as nelonemdaz
Description: as §1, with “Among patients with cardiac arrest outside the hospital, those whose spontaneous circulation resumed for more than 20 minutes and who received hypothermia treatment at 32-34°C for 24 hours upon arrival at the hospital were enrolled. Patients were administered the test drug within 4 hours after spontaneous circulation resumed.” left out
In brain white matter, the diffusion of water molecules moves in a direction parallel to the direction of nerve fiber bundles. […] The protective effect of nelonemdaz on brain white matter was analyzed by comparing whole-brain and region-specific anisotropy values obtained from brain DTI images of resuscitated cardiac arrest patients who received nelonemdaz with those of a placebo group. […]
To analyze FA values in the whole brain tissue, preprocessing such as image and motion noise removal and skull removal was performed to extract diffusion parameters, and FA values corresponding to the whole brain tissue were calculated. […]

[6] = tested on: porcine model of cardiac arrest treated with hypothermia; details: cited from earlier work
[7] = Nelonemdaz K 3.25g (N=27) compared to placebo
[8] = Nelonemdaz K 5.25g (N=27) compared to placebo

## xenon
[1]; after 6 months
  neurological function: no improvement in neurological function was observed
[1]
  white matter (neural network) damage: significant reduction

## O=C(O)c1cc(NCc2c(F)c(F)c(C(F)(F)F)c(F)c2F)ccc1O
[2]; Nelonemdaz K 3.25g (N=34)
  Frequency of medication-related serious adverse events: 0 (0.00%) Number of patients who experienced the event (% of patients who experienced the event)
  Frequency of serious adverse events: 0 (0.00%) Number of patients who experienced the event (% of patients who experienced the event)
[2]; Nelonemdaz K 5.25g (N=37)
  Frequency of medication-related serious adverse events: 0 (0.00%) Number of patients who experienced the event (% of patients who experienced the event)
  Frequency of serious adverse events: 0 (0.00%) Number of patients who experienced the event (% of patients who experienced the event)
[2]; high-dose (5,250 mg) group
  unusual side effects, including schizophrenia symptoms: no unusual side effects, including schizophrenia symptoms, were observed
[2]; low-dose (3,250 mg) group
  unusual side effects, including schizophrenia symptoms: no unusual side effects, including schizophrenia symptoms, were observed
[3]; [7]
  Common Odds Ratio (95% C.I.) of shift in the distribution of mRS scores: 1.975 (0.714, 5.461)
[3]; Nelonemdaz K 3.25g (N=27)
  patients with mRS 0: 13 (48.15%) N (%)
  patients with mRS 1: 2 (7.41%) N (%)
  patients with mRS 2: 0 (0.00%) N (%)
  patients with mRS 3: 1 (3.70%) N (%)
  patients with mRS 4: 0 (0.00%) N (%)
  patients with mRS 5: 3 (11.11%) N (%)
  patients with mRS 6: 8 (29.63%) N (%)
[3]; [8]
  Common Odds Ratio (95% C.I.) of shift in the distribution of mRS scores: 2.243 (0.806, 6.242)
[3]; Nelonemdaz K 5.25g (N=27)
  patients with mRS 0: 15 (55.56%) N (%)
  patients with mRS 1: 1 (3.70%) N (%)
  patients with mRS 2: 1 (3.70%) N (%)
  patients with mRS 3: 0 (0.00%) N (%)
  patients with mRS 4: 0 (0.00%) N (%)
  patients with mRS 5: 1 (3.70%) N (%)
  patients with mRS 6: 9 (33.33%) N (%)
[3]; high-dose group (10/27)
  proportion of subjects with an mRS of 5-6 (poor neurological outcome: severe coma or death): 37%
[3]; high-dose group (17/27)
  proportion of subjects with an mRS of 0-2 (good neurological outcome): 62.96%
[3]; high-dose group
  decrease of proportion of subjects with mRS 5-6 versus placebo group: 1.38 fold
  increase of proportion of subjects with mRS 0-2 versus placebo group: 1.55 fold
  proportion of patients with an mRS of 0: 55.56%
[3]; low-dose group (11/27)
  proportion of subjects with an mRS of 5-6 (poor neurological outcome: severe coma or death): 40.74%
[3]; low-dose group (15/27)
  proportion of subjects with an mRS of 0-2 (good neurological outcome): 55.56%
[3]; low-dose group
  decrease of proportion of subjects with mRS 5-6 versus placebo group: 1.31 fold
  increase of proportion of subjects with mRS 0-2 versus placebo group: 1.375 fold
  proportion of patients with an mRS of 0: 48.15%
[4]; [7]
  Common Odds Ratio (95% C.I.) of the shift in the distribution of CPC scores: 2.13 (0.75-6.03)
[4]; Nelonemdaz K 3.25g (N=27)
  patients with CPC 1: 15 (55.56%) N (%)
  patients with CPC 2: 0 (0.00%) N (%)
  patients with CPC 3: 2 (7.41%) N (%)
  patients with CPC 4: 2 (7.41%) N (%)
  patients with CPC 5: 8 (29.63%) N (%)
[4]; [8]
  Common Odds Ratio (95% C.I.) of the shift in the distribution of CPC scores: 2.22 (0.78-6.30)
[4]; Nelonemdaz K 5.25g (N=27)
  patients with CPC 1: 16 (59.26%) N (%)
  patients with CPC 2: 1 (3.70%) N (%)
  patients with CPC 3: 0 (0.00%) N (%)
  patients with CPC 4: 1 (3.70%) N (%)
  patients with CPC 5: 9 (33.33%) N (%)
[4]; high-dose group
  increase of proportion of patients with CPC 1-2 versus placebo group: 1.55 fold
  proportion of patients with the CPC 1-2 (Good Outcome): 62.96%
  proportion of patients with the CPC 4-5 (Poor Outcome): 37.04%
  proportion of patients who completely recovered to CPC 1: 59.26%
  proportion of patients with CPC 5 who died: 33.33%
[4]; low-dose group
  increase of proportion of patients with CPC 1-2 versus placebo group: 1.36 fold
  proportion of patients with the CPC 1-2 (Good Outcome): 55.55%
  proportion of patients with the CPC 4-5 (Poor Outcome): 37.04%
  proportion of patients who completely recovered to CPC 1: 55.56%
  proportion of patients with CPC 5 who died: 29.63%
[5]; HIGH dose (n=18)
  Fractional anisotropy (FA), Whole brain white matter, Median (interquartile range): 0.465 (0.449-0.485)
[5]; LOW dose (n=22)
  Fractional anisotropy (FA), Whole brain white matter, Median (interquartile range): 0.462 (0.439-0.480)
[5]; high doses, corpus callosum, superior fronto-occipital fasciculus, fornix, anterior limb of internal capsule, middle and superior cerebellar peduncle, versus placebo
  damage to white matter regions (by regional FA): significantly reduced

## CC12CC3CC(C)(C1)CC(N)(C3)C2
[6]
  neuroprotective effect: did not demonstrate a neuroprotective effect
